Results on one molecule are retold here after US20190336615A1 (SILVERBACK THERAPEUTICS, published 2019).

Sequences of proteins named here, by UniProt entry; tags and fusion partners are left off. Residues count along the entry.
UniProt P08637, 17-208 F176V: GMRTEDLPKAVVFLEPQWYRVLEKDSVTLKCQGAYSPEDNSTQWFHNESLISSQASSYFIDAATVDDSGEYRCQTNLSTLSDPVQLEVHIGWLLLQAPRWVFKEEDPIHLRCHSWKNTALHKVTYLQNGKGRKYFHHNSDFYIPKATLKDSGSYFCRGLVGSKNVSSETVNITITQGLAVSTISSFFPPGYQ
UniProt P08637, 17-208 limits assumed: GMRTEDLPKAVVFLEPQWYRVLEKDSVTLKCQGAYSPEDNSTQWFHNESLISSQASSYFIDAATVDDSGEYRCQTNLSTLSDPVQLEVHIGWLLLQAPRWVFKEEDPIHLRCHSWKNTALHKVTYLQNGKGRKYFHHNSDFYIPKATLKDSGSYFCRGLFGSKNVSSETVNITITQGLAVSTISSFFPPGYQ

One test addresses T1, human FcγRIIIA V158 (human, UniProt P08637, in part).
T1 construct: F as the other allele comes from its 'F158' variant; 158 counts on the mature protein, not on the precursor entry; also called huFcγR3 V158
Put plainly: BLI (Octet), FcγR on anti-His sensor, antibody analyte, avidity model. A general note: Biolayer interferometry detects binding as a change in optical thickness at a sensor tip.

The target of another test is T2, human FcγRIIIA F158 (human, UniProt P08637, in part).
T2 construct: not tied to the assay protein; also called huFcγR3 F158
The description is as above.

The target of the next test is T3, human FcγRI, monomeric (human).
T3 construct: not tied to the assay protein; also called huFcγR1; huFcyRI
In words: BLI (Octet), antibody on anti-human Fc sensor, monomeric FcγR analyte, 1:1 model. The procedure: (§1) Equilibrium dissociation constants (KD) were calculated by the […].

The target of the next test is T4, human FcγRIIA, monomeric (human, UniProt P12318 36-218, limits assumed).
T4 construct: not tied to the assay protein; also called huFcγR2A; huFcyRIIA
T4 sequence (looked up): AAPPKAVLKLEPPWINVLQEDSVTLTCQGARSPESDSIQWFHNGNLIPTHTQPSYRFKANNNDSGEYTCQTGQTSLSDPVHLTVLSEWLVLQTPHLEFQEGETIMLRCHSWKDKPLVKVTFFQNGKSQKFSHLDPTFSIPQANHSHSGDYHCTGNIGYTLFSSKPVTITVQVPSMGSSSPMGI
The description is as above. The procedure:
as §1

B1: bispecific anti-HER2 x anti-CD40 IgG1 Fc null recombinant antibody (HER2-CD40 G1null) (bispecific antibody)
heavy: EVQLVESGGGLVQPGGSLRLSCAASGFTFTDYTMDWVRQAPGKGLEWVADVNPNSGGSIYNQRFKGRFTLSVDRSKNTLYLQMNSLRAEDTAVYYCARNLGPSFYFDYWGQGTLVTVSSASTKGPSVFPLAPSSKSTSGGTAALGCLVKDYFPEPVTVSWNSGALTSGVHTFPAVLQSSGLYSLSSVVTVPSSSLGTQTYICNVNHKPSNTKVDKKVEPKSCDKTHTCPPCPAPEAAGAPSVFLFPPKPKDTLMISRTPEVTCVVVDVSHEDPEVKFNWYVDGVEVHNAKTKPREEQYNSTYRVVSVLTVLHQDWLNGKEYKCAVSNKALPAPIEKTISKAKGQPREPQVYTLPPSREEMTKNQVSLTCLVKGFYPSDIAVEWESNGQPENNYKTTPPVLDSDGSFFLYSKLTVDKSRWQQGNVFSCSVMHEALHNHYTQKSLSLSPGGGGGSGGGGSQVQLVQSGAEVKKPGASVKVSCKASGYTFTGYYMHWVRQAPGQGLEWMGWINPDSGGTNYAQKFQGRVTMTRDTSISTAYMELNRLRSDDTAVYYCARDQPLGYCTNGVCSYFDYWGQGTLVTVSSGGGGSGGGGSGGGGSGGGGSDIQMTQSPSSVSASVGDRVTITCRASQGIYSWLAWYQQKPGKAPNLLIYTASTLQSGVPSRFSGSGSGTDFTLTISSLQPEDFATYYCQQANIFPLTFGGGTKVEIK
light: DIQMTQSPSSLSASVGDRVTITCKASQDVSIGVAWYQQKPGKAPKLLIYSASYRYTGVPSRFSGSGSGTDFTLTISSLQPEDFATYYCQQYYIYPYTFGQGTKVEIKRTVAAPSVFIFPPSDEQLKSGTASVVCLLNNFYPREAKVQWKVDNALQSGNSQESVTEQDSKDSTYSLSSTLTLSKADYEKHKVYACEVTHQGLSSPVTKSFNRGEC
notes: also called anti-HER2×anti-CD40 Fcnull; HER2-CD40 Fcnull
As for B1, the binding result with human FcγRIIIA V158 is “no binding (tested: 37 nM to 1 µM antibody)”; with human FcγRIIIA F158, “no binding (tested: 37 nM to 1 µM antibody)”; with human FcγRI, monomeric, “no binding (tested: 1.2 nM to 300 nM FcγR)”; in the test with human FcγRIIA, monomeric it was “no binding (tested: 1.2 nM to 300 nM FcγR)”.
